Tests used:
[1] = test system: carboxypeptidase Y and B; test: Metabolic stability in carboxypeptidase mix (ESMS, selected ion monitoring); settings: carboxypeptidase Y and B in 50 mM ammoniumacetate pH 4.5; 37° C., 24 h in degradation solution; decrease in SIM signal vs zero-sample
[2] = test system: trypsin, chymotrypsin and elastase; test: Metabolic stability in pancreatic enzyme mix (ESMS, selected ion monitoring); settings: chymotrypsin and elastase in 100 mM ammoniumbicarbonate pH 8.0, 37° C., 24 h in degradation solution, decrease in SIM signal vs zero-sample

Q: Which results are given for `CSCC[C@H](NC(=O)[C@H](CC(C)C)NC(=O)[C@H](Cc1c[nH]c2ccccc12)NC(=O)[C@H](CCC(N)=O)NC(=O)[C@@H](NC(=O)[C@H](Cc1ccccc1)NC(=O)[C@H](CC(=O)O)NC(=O)[C@H](CCC(N)=O)NC(=O)[C@H](C)NC(=O)[C@H](CCCN=C(N)N)NC(=O)[C@H](CCCN=C(N)N)NC(=O)[C@H](CO)NC(=O)[C@H](CC(=O)O)NC(=O)[C@H](CC(C)C)NC(=O)[C@H](Cc1ccc(O)cc1)NC(=O)[C@H](CCCCN)NC(=O)[C@H](CO)NC(=O)[C@H](Cc1ccc(O)cc1)NC(=O)[C@H](CC(=O)O)NC(=O)[C@H](CO)NC(=O)[C@@H](NC(=O)[C@H](Cc1ccccc1)NC(=O)[C@@H](NC(=O)CNC(=O)[C@H](CCC(N)=O)NC(=O)[C@H](CO)NC(=O)[C@@H](N)Cc1c[nH]cn1)[C@@H](C)O)[C@@H](C)O)C(C)C)C(=O)N[C@@H](CC(N)=O)C(=O)N[C@H](C(=O)O)[C@@H](C)O` [Glucagon]?
A: Carboxypeptidase mix [1]: − (Unstable (more than 20% decrease in SIM signal after 24 h in degradation solution)); Pan. enzyme mix [2]: − (Unstable (more than 20% decrease in SIM signal after 24 h in degradation solution))

Source: patent US6555570B2, “Compounds with growth hormone releasing properties” (Novo Nordisk A/S, priority 1995, dated 2003)
